Test results from patent US20150283271A1, “METHOD FOR MIMICKING HUMAN CLINICAL TRIAL BY USING NON-HUMAN ANIMALS” (Crown Bioscience Inc. (Taicang), priority 2014, published 2015).

Test system: 20 PDXs derived from 20 patients suffered from metastatic non-small cell lung cancer
Assay: Mouse clinical trial (MCT/HuTrial) of 20 PDXs with 10:10 design, Progression-Free Survival
Format: in vivo
Settings: BALB/c nude mice with NSCLC PDX; 40 mg/kg iv every day x 49; PFS = time from dosing start until tumor volume reaches 800 cm^3; SPSS 20, p<0.05
Procedure: Based on the modified formula and preliminary experiment, the inventor designs a MCT. In the MCT design, α is set as 0.01, power of statistic is set as 0.99. According to the MCT design that the amount of the mice in the control group equates to that in the treatment group, P1 is 1/2 and P2 is 1/2. Based on the preliminary experiment and the predicted hazard of the texted agent, ρ is 0.3 and the hazard ratio is 0.65. Through the above formula, the K is calculated as 363. In view of that some mice may be censored during the MCT or some mice may never reach the end point during the MCT, the total amount of mice is set as 400. Based on the MCT design, both of the number of the mice in the control group and treatment group are 200. Considering 20 PDXs are required, 10 mice in the control group and 10 mice in the treatment group are grafted with each PDX. Therefore, MCT is a MCT of 20 PDXs with 10:10.
Species: Mus Musculus; Age: 6-8 weeks; Sex: female; Body Weight (at treatment initiation): 18-20 g; Animal supplier: Beijing HFK Bio-technology Co. Ltd.
Cetuximab®, an epidermal growth factor receptor (EGFR) inhibitor used for the treatment of metastatic colorectal cancer, metastatic non-small cell lung cancer marked by Bristol-Myers Squibb. […]
The tumor volume will be monitored regularly before randomization. […]
Tumor size will be measured by caliper twice weekly in two dimensions. […]

## Cetuximab
  Progression-Free Survival (PFS), treatment group versus vehicle group, statistical result: statistically significant
